{"sequences": {"note": "Amino acid sequences for entries named in this document (tags omitted).", "UniProt P30518, whole entry": "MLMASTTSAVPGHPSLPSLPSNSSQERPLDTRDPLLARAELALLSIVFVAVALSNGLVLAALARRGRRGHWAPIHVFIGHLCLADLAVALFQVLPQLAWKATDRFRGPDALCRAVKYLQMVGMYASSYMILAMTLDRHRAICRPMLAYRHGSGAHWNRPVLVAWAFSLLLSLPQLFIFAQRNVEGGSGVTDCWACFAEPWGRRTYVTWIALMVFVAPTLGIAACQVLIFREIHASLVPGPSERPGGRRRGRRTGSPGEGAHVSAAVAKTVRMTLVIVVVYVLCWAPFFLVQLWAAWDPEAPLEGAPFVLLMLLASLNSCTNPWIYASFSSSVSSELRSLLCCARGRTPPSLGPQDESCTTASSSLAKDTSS"}, "source": "paper PMC7392148", "about": "(Bioorganic & medicinal chemistry, 2020)", "key": {"AVPR2": {"target": "AVPR2 (Homo sapiens, UniProt P30518)", "experiment": "PathHunter β-arrestin antagonist assay", "type": "cell-based", "conditions": "dose-response, reference AVPR2 antagonist"}, "panel of 168 GPCRs": {"test_system": "panel of 168 GPCRs", "experiment": "PathHunter β-arrestin cell-based assays, antagonist primary screen", "conditions": "from the 168 GPCRs tested"}}, "data": [{"smiles": "Cc1ccccc1C(=O)Nc1ccc(C(=O)N2CCCC(O)c3cc(Cl)ccc32)c(C)c1", "note": "(centres unmarked) [tolvaptan]", "values": [{"measurement": "IC50", "setting": "AVPR2", "result": 7.34, "unit": "pM"}]}, {"smiles": "COC(=O)[C@@H]1[C@H]2C[C@H]3c4[nH]c5ccccc5c4CCN3C[C@@H]2CC[C@@H]1O", "note": "[yohimbine, reference compound]", "values": [{"measurement": "hit rate", "setting": "panel of 168 GPCRs", "result": 4.2, "unit": "%"}]}]}
